Assay results taken from US5883097A, “Soluble azole antifungal salt” (Schering Corporation, priority 1998, dated 1999).

Tested on: dermatophytes, T. rubrum, T. mentagrophytes, and T. tonsurans
Experiment: In vitro antifungal activity (MIC/MFC) against dermatophytes
Settings: N=6, after 48 or 78 hours

Q: How did the “geometric mean MICs and MFCs compared to fluconazole, dermatophytes” value turn out when `CCC(C(C)O)n1ncn(-c2ccc(N3CCN(c4ccc(OCC5COC(Cn6cncn6)(c6ccc(F)cc6F)C5)cc4)CC3)cc2)c1=O` [compound of formula II, -(2 R-cis)-4-[4-[4-[4-[[-5-(2,4-Difluorophenyl)-tetrahydro-5-(1 H-1,2,4-triazol-1-ylmethyl)furan-3-yl]methoxy]phenyl]-1-piperazinyl]phenyl]-2-4-dihydro-2-[(1 S)-ethyl-2(S)-hydroxypropyl]-3 H-1,2,4-triazol-3-one] was run?
A: The value was “superior antifungal activity”.
